{"sequences": {"note": "Sequences of proteins named here, by UniProt entry; tags and fusion partners are left off. Residues count along the entry.", "UniProt A9XFY4, 20-781 limits assumed": "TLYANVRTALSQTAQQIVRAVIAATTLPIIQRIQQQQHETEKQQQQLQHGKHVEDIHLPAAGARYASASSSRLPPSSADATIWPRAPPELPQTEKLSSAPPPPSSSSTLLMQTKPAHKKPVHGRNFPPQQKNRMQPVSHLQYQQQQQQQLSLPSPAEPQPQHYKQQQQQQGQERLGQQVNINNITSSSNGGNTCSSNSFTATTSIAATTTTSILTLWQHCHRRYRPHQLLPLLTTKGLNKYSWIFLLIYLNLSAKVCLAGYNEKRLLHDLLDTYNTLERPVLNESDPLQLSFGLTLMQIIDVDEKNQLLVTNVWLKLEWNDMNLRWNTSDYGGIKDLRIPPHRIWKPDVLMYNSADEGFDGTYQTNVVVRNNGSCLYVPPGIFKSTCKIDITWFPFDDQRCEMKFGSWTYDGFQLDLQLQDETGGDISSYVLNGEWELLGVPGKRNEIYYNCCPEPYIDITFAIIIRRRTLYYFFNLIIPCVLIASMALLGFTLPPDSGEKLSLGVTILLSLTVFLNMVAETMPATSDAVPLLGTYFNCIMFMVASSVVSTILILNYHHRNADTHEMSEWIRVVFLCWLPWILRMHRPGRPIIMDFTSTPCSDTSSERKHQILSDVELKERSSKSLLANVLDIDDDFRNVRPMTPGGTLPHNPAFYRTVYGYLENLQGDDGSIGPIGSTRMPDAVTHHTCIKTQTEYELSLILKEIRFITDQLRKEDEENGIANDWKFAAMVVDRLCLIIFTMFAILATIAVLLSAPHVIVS"}, "source": "ChEMBL document CHEMBL3046309", "about": "“Dihydropiperazine neonicotinoid compounds. Synthesis and insecticidal activity” (J Agric Food Chem, 2003)", "biological_target": "Nicotinic acetylcholine receptor alpha 5 subunit (Musca domestica, UniProt A9XFY4)", "test": "Displacement of [3H]imidacloprid from nicotinic acetylcholine receptor in Musca domestica (house fly) head membrane after 1 hr by liquid scintillation counting analysis", "data": [{"smiles": "CN1C/C(=N\\C#N)N(Cc2ccc(Cl)nc2)CC1=O", "values": [{"measurement": "Ki", "result": "> 10", "unit": "µM"}]}, {"smiles": "O=C1/C(=N\\O)NCCN1Cc1ccc(Cl)nc1", "values": [{"measurement": "Ki", "result": 3.34, "unit": "µM"}]}, {"smiles": "CN1CCN=C(N(C#N)Cc2ccc(Cl)nc2)C1=O", "values": [{"measurement": "Ki", "result": "> 10", "unit": "µM"}]}]}
